Source: IntAct's records for PubMed 35512704

B1: RAC-alpha serine/threonine-protein kinase (Homo sapiens), P31749 (parent)
chain: MSDVAIVKEGWLHKRGEYIKTWRPRYFLLKNDGTFIGYKERPQDVDQREAPLNNFSVAQCQLMKTERPRPNTFIIRCLQWTTVIERTFHVETPEEREEWTTAIQTVADGLKKQEEEEMDFRSGSPSDNSGAEEMEVSLAKPKHRVTMNEFEYLKLLGKGTFGKVILVKEKATGRYYAMKILKKEVIVAKDEVAHTLTENRVLQNSRHPFLTALKYSFQTHDRLCFVMEYANGGELFFHLSRERVFSEDRARFYGAEIVSALDYLHSEKNVVYRDLKLENLMLDKDGHIKITDFGLCKEGIKDGATMKTFCGTPEYLAPEVLEDNDYGRAVDWWGLGVVMYEMMCGRLPFYNQDHEKLFELILMEEIRFPRTLGPEAKSLLSGLLKKDPKQRLGGGSEDAKEIMQHRFFAGIVWQHVYEKKLSPPFKPQVTSETDTRYFDEEFTAQMITITPPDQDDSMECVDSERRPHFPQFSYSASGTA
partner: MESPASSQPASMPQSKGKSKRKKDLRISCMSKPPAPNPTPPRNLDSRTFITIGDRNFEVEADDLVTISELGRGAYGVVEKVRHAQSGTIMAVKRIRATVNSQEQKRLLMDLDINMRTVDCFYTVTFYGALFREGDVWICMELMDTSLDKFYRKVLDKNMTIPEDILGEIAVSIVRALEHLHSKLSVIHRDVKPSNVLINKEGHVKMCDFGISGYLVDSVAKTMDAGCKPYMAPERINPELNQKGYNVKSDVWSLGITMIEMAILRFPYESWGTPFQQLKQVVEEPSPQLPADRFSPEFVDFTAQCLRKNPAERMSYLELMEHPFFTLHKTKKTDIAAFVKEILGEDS
B2: RAC-alpha serine/threonine-protein kinase (Homo sapiens), P31749 (parent)
chain: B1 chain
partner: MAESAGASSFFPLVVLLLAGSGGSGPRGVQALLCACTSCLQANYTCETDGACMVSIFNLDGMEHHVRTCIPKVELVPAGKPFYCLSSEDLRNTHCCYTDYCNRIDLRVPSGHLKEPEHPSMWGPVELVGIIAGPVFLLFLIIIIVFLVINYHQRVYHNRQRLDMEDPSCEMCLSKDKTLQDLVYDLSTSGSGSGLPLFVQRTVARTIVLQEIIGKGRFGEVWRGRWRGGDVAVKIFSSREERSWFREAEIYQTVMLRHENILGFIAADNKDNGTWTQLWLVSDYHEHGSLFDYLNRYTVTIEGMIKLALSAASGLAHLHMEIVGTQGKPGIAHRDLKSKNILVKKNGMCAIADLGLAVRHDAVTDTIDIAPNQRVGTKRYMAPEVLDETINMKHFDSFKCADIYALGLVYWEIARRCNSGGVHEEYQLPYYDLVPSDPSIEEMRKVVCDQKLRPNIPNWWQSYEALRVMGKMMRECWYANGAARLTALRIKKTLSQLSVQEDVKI
B3: RAC-alpha serine/threonine-protein kinase (Homo sapiens), P31749 (parent)
chain: B1 chain
partner: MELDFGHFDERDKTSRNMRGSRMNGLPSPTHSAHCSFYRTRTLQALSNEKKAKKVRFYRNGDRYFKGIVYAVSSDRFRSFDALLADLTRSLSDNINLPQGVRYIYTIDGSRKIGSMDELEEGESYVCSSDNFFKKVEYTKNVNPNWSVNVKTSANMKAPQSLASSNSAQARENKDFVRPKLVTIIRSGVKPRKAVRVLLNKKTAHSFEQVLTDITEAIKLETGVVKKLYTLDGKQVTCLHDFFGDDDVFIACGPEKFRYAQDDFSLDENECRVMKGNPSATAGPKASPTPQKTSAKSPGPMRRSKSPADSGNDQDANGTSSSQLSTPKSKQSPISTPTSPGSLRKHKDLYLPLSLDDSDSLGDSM
B4: RAC-alpha serine/threonine-protein kinase (Homo sapiens), P31749 (parent)
chain: B1 chain
partner: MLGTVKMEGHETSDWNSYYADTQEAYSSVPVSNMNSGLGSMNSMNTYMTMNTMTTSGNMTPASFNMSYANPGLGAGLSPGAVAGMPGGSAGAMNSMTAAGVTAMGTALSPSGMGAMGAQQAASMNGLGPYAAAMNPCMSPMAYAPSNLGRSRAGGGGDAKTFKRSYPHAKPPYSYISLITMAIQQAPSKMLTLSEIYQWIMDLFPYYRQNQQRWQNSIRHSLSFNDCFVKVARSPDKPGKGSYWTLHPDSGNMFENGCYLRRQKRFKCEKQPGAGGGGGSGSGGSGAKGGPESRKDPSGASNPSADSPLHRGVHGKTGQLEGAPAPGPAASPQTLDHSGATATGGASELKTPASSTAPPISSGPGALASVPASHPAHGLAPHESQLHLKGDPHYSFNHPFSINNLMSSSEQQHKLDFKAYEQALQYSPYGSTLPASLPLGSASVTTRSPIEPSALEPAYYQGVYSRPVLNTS
B5: RAC-alpha serine/threonine-protein kinase (Homo sapiens), P31749 (parent)
chain: B1 chain
partner: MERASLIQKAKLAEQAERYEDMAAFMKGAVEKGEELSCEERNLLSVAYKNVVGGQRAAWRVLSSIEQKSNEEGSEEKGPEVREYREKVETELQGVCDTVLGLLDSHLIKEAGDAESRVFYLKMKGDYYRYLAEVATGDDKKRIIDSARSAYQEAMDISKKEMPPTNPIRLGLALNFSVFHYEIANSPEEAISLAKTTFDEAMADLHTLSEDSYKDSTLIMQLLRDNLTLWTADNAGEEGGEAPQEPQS
B6: RAC-alpha serine/threonine-protein kinase (Homo sapiens), P31749 (parent)
chain: B1 chain
partner: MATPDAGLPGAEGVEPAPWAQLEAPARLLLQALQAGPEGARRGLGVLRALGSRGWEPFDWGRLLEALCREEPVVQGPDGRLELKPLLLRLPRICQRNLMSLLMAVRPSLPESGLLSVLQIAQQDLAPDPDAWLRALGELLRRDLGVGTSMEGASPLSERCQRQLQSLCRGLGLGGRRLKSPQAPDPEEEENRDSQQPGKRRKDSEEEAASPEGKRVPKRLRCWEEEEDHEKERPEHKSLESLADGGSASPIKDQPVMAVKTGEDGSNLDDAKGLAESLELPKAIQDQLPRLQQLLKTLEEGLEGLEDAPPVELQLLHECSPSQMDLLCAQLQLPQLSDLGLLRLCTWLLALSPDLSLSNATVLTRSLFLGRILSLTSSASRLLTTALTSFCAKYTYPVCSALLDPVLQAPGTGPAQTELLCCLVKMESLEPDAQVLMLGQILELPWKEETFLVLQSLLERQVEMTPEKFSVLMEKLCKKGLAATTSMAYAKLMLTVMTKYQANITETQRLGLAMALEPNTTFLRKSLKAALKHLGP
B7: RAC-alpha serine/threonine-protein kinase (Homo sapiens), P31749 (parent)
chain: B1 chain
partner: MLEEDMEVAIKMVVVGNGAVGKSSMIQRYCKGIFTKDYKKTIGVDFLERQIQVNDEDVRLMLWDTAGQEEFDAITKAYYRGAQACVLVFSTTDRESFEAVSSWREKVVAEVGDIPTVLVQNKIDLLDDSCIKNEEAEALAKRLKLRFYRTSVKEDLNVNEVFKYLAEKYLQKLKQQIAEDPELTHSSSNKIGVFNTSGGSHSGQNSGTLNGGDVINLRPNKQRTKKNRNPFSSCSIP
B8: RAC-alpha serine/threonine-protein kinase (Homo sapiens), P31749 (parent)
chain: B1 chain
partner: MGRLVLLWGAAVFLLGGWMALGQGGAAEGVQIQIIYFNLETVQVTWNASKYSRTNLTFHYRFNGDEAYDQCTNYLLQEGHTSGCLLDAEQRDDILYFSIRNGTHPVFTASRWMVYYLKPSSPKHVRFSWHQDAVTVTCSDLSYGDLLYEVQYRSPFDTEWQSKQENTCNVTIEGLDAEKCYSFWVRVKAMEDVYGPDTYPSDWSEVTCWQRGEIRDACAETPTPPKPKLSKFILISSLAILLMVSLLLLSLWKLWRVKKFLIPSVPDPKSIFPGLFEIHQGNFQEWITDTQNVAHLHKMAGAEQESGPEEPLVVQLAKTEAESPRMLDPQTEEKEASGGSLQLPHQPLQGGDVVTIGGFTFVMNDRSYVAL
B9: RAC-alpha serine/threonine-protein kinase (Homo sapiens), P31749 (parent)
chain: B1 chain
partner: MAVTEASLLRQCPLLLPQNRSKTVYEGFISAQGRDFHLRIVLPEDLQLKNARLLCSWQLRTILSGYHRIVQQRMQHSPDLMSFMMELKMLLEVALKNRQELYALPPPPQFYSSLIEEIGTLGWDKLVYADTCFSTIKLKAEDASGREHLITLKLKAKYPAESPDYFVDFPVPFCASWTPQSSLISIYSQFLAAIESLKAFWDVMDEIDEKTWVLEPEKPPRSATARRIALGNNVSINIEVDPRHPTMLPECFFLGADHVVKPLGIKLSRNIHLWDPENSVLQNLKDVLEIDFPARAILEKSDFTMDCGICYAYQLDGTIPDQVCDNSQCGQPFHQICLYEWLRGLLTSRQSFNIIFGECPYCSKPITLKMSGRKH
B10: RAC-alpha serine/threonine-protein kinase (Homo sapiens), P31749 (parent)
chain: B1 chain
partner: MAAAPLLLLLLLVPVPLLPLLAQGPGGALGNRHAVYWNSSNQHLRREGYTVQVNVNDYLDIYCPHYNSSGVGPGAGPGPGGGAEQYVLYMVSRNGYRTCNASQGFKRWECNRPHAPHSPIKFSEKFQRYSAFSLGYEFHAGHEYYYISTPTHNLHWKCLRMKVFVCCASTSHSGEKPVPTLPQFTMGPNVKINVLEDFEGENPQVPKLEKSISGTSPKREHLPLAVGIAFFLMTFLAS

Variants of: B1
Settings: with mp2k3_human MAP2K3, P46734

Variant | effect of a mutation on the interaction
E17K | with no effect

Variants of: B2
Settings: with acv1b_human ACVR1B

Variant | effect of a mutation on the interaction
E17K | with no effect

Variants of: B3
Settings: with dcx_human DCX

Variant | effect of a mutation on the interaction
E17K | disrupting interaction strength

Variants of: B4
Settings: with foxa1_human FOXA1, P55317

Variant | effect of a mutation on the interaction
E17K | with no effect

Variants of: B5
Settings: with 1433s_human SFN

Variant | effect of a mutation on the interaction
E17K | disrupting interaction strength

Variants of: B6
Settings: with fance_human FANCE

Variant | effect of a mutation on the interaction
E17K | causing an interaction

Variants of: B6
Settings: with fance_human FANCE
Remark: another data set of the same source

Variant | effect of a mutation on the interaction
E17K | increasing interaction strength

Variants of: B7
Settings: with rab23_human RAB23, Q9ULC3

Variant | effect of a mutation on the interaction
E17K | with no effect

Variants of: B8
Settings: with crlf2_human CRLF2, Q9HC73

Variant | effect of a mutation on the interaction
E17K | with no effect

Variants of: B9
Settings: with fancl_human FANCL

Variant | effect of a mutation on the interaction
E17K | causing an interaction

Variants of: B10
Settings: with efna3_human EFNA3, P52797

Variant | effect of a mutation on the interaction
E17K | causing an interaction
